Test results as given in article PMC5384220, “Highly selective inhibition of histone demethylases by de novo macrocyclic peptides” (Nature Communications, 2017).

Columns and labels:
[1] = 10 µM, 37°C, intact peptide by LCMS
[2] = target: T1, KDM5C (Homo sapiens, UniProt P41229); assay: AlphaScreen demethylase activity assay, KDM5C; assay type: biochemical; conditions: read-out: IC50 KDM5C
T1 construct: KDM5C 1-765 Baculovirus; made in house
T1 sequence (P41229 1-765): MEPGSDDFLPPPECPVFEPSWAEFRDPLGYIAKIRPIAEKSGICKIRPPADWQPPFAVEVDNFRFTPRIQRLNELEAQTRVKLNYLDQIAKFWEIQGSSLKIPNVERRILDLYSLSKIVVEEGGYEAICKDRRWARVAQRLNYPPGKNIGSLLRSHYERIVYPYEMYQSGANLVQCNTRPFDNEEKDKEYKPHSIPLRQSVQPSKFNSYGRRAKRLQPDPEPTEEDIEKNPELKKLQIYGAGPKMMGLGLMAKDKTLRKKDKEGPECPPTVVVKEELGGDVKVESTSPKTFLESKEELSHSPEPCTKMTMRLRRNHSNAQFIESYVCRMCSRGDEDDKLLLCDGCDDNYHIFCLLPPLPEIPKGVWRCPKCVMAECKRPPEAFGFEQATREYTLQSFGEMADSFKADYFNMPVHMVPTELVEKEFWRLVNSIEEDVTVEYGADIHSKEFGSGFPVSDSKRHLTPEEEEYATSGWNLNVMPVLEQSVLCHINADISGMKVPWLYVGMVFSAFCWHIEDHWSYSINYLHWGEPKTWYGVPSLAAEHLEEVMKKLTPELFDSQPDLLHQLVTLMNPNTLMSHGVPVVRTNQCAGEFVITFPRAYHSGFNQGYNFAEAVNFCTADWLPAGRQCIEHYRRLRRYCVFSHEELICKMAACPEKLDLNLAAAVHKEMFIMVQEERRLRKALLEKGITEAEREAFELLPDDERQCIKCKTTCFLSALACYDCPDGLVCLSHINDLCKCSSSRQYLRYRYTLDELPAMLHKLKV
Protocol: (§1) IC50 values for KDM2–6 were measured using an AlphaScreen assay as described. The appropriate KDM (5 μl) was pre-incubated with an inhibitor (0.1 μl in DMSO) or DMSO for 15 min before the addition of 5 μl mixture of biotinylated peptide substrates, 2OG, ferrous ammonium sulfate (1–10 μM final) and ascorbate (100 μM final) to initiate the demethylation reaction. The reaction was quenched with 5 μl of 30 mM EDTA at predetermined reaction times for each enzyme (initial rate). Demethylated product was detected by addition of 5 μl of AlphaScreen donor and acceptor beads (AlphaScreen General IgG Detection Kit, 0.02 mg ml^−1 final each) pre-incubated with antibody. The plates were read after 1 h incubation in a BMG Labtech Pherastar FS plate reader. Data were normalized to a no enzyme control and IC50 values were calculated using nonlinear regression curve fits using GraphPad Prism. Assay buffer (50 mM HEPES pH 7.5, BSA (0.1% w/v) and Tween-20 (0.01% v/v)) was used throughout, except for dilution of stock ferrous ammonium sulfate solutions where water was used. The enzyme, substrate and antibody concentrations used are described in Supplementary Table 3. A fluorescence-based LSD1 inhibitor screening assay kit (Cayman, 700120) was used for KDM1/LSD1 assay. Assays for prolyl hydroxylase domain 2 and factor inhibiting HIF using matrix-assisted laser desorption/ionization–time of flight MS were performed as previously described. Prism 5.0 (GraphPad) was used to generate and to fit dose–response curves. IC50 values were determined by plotting percentage inhibition versus compound concentration relative to positive (vehicle) and negative (no enzyme) controls, using normalized dose–response (variable slope) fit. The reported values are the mean of multiple experiments (n≥3). The formaldehyde dehydrogenase coupled KDM assay was used to determine the mode of inhibition, using 0.5 μM His-KDM4A1–359. Prism 5.0 (GraphPad) was used to fit in mix-mode inhibition, to determine the kinetic parameters. Binding constants for CPs and H3(1–15)K9me3 were measured using biolayer interferometry (OctetRed 384, ForteBio) in buffer (50 mM HEPES (pH 7.5), 150 mM NaCl, 10 μM ammonium iron(II) sulphate). His-KDM4A1–359-Bio (70 nM) was immobilized onto super streptavidin biosensor and subjected to different peptide concentrations in buffer. Data analysis was performed using ForteBio Data Aalysis (v6.4).
Construct Expression [E] / nM [2OG] / µM [Fe(II)] / µM Peptide / nM Peptide sequence Antibody Source […]
Supplementary Table 3. AlphaScreen assay parameters for 2OG oxygenases used for this study. The table was dapted from 10. Assays were performed at 2OG concentration near the 2OG Km values determined experimentally.11 All enzymes were expressed and purified as described.10-12

[3] = target: T2, KDM2A (Homo sapiens, UniProt Q9Y2K7); assay: AlphaScreen demethylase activity assay, KDM2A; assay type: biochemical; conditions: read-out: IC50 KDM2A
T2 construct: KDM2A 1-517 E.coli; made in house; host or cells: E. coli
T2 sequence (Q9Y2K7 1-517): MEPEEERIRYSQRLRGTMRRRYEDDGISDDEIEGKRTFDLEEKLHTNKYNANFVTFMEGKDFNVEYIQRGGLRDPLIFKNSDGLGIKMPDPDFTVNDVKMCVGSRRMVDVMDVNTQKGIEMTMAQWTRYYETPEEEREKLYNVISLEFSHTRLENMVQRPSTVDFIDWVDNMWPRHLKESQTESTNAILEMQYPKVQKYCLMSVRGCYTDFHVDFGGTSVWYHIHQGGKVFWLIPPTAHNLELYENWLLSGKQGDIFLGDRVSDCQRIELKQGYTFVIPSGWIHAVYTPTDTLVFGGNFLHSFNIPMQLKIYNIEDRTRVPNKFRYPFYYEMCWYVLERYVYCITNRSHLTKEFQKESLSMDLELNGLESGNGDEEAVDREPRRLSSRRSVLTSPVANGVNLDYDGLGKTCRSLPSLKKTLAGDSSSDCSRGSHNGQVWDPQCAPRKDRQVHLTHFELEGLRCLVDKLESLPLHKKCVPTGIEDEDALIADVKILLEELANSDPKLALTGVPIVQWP
Protocol: as §1, with “The reported values are the mean of multiple experiments (n≥3). The formaldehyde dehydrogenase coupled KDM assay was used to determine the mode of inhibition, using 0.5 μM His-KDM4A1–359. Prism 5.0 (GraphPad) was used to fit in mix-mode inhibition, to determine the kinetic parameters.” left out, “His-KDM4A1–359-Bio (70 nM) was immobilized onto super streptavidin biosensor and subjected to different peptide concentrations in buffer. Data analysis was performed using ForteBio Data Aalysis (v6.4).” left out
Supplementary Table 3. […] Assays were performed at 2OG concentration near the 2OG Km values determined experimentally.11 All enzymes were expressed and purified as described.10-12

| Substance | Half life (t1/2) in HeLa cell lysate [1] [h] | IC50 [2] [µM] | IC50 [3] [µM] |
| --- | --- | --- | --- |
| DY(meV)YNTRSDAWRW(4FF)P(meC) [CP2.3] | ~5 |  |  |
| DYVYNTRSDAWRWYT(meC) [CP2.1] |  | 16.5 |  |
| DYVYNTRSGWRWYTC [CP2] | ~1 | > 10 | > 10 |
| LYLKSRRSGLTWIPC [CP4] |  | > 10 | > 10 |
| LYSKYTQSGVRWVC [CP5] |  | > 10 | > 10 |
